scFv variants of Ab-14 (light chain) against a SARS-CoV-2 spike peptide

Values reported by Engelhart et al. 2022, doi:10.1038/s41597-022-01779-4 (FLAb copy).

Target: peptide PDVDLGDISGINAS, taken from heptad repeat 2 (HR2) of SARS-CoV-2 spike.

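Phage display of a naive human antibody library on the peptide gave the parent. In library AAYL50, one, two or three CDR residues were substituted; doubles and triples were drawn at random. The scFvs were displayed on barcoded MATa yeast, the peptide on MATalpha yeast. Mating (16 h, 30 °C) was followed by selection of diploids and sequencing of their barcodes. The ratio of observed to expected reads was calibrated, replicate by replicate, on BCL2-family standards whose Kd was known from biolayer interferometry. The assay was run in three technical replicates.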

The variants keep the heavy chain, the linker and the frameworks of Ab-14 (scFv order VH, three GGGGS repeats, VL).
VH: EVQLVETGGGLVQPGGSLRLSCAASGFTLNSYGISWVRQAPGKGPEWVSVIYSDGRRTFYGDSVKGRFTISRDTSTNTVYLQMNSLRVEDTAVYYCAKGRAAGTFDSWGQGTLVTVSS
VL: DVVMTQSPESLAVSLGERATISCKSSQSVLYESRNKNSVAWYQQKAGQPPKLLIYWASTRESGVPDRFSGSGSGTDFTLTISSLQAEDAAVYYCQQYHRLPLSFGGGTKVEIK

Changes read parent residue, position, new residue, counted from the first residue of the VL shown.
Scale: log10 of Kd in nM, estimated from mating counts; low values are strong binders.
A mean of the replicates is given; it leaves out those without a signal.
"n.d." means that the variant was in the library but no mating with the target was seen in that replicate; the authors take this as a sign of poor binding, and no number exists.

{"changes": "S38T+E61V+H98T", "replicates, log10 nM": "1.88 1.54 1.70", "mean, log10 nM": "1.71", "signal with controls": "0/9"}
{"changes": "N37I+S38Y", "replicates, log10 nM": "n.d. 3.16 n.d.", "mean, log10 nM": "3.16", "signal with controls": "2/9 (3.31)"}
{"changes": "E32V+N35P+E61C", "replicates, log10 nM": "2.91 2.37 2.94", "mean, log10 nM": "2.74", "signal with controls": "2/9 (3.82)"}
{"changes": "S25R+R34E+H98D", "replicates, log10 nM": "1.15 1.31 1.39", "mean, log10 nM": "1.28", "signal with controls": "5/9 (4.58)"}
{"changes": "R34W+A57W+S58A", "replicates, log10 nM": "4.93 4.89 n.d.", "mean, log10 nM": "4.91", "signal with controls": "4/9 (4.89)"}
{"changes": "S25C+E32Q", "replicates, log10 nM": "1.36 1.35 1.35", "mean, log10 nM": "1.35", "signal with controls": "6/9 (4.91)"}
{"changes": "K24D+L100R", "replicates, log10 nM": "2.13 2.25 2.77", "mean, log10 nM": "2.38", "signal with controls": "6/9 (4.12)"}
{"changes": "Y31R+V39N+S62V", "replicates, log10 nM": "n.d. n.d. n.d.", "mean, log10 nM": "n.d.", "signal with controls": "0/9"}
{"changes": "K36F+W56D+E61I", "replicates, log10 nM": "-0.52 -0.15 -0.45", "mean, log10 nM": "-0.37", "signal with controls": "3/9 (3.58)"}
{"changes": "L30H+S33G+E61N", "replicates, log10 nM": "0.53 1.64 0.59", "mean, log10 nM": "0.92", "signal with controls": "0/9"}
{"changes": "L30Y+E32N+Q96F", "replicates, log10 nM": "1.55 1.74 1.65", "mean, log10 nM": "1.65", "signal with controls": "1/9 (3.36)"}
{"changes": "S26V+E32A+R60Q", "replicates, log10 nM": "n.d. n.d. n.d.", "mean, log10 nM": "n.d.", "signal with controls": "1/9 (3.96)"}
{"changes": "S26A+N35H+E61G", "replicates, log10 nM": "2.22 2.27 2.62", "mean, log10 nM": "2.37", "signal with controls": "5/9 (4.64)"}
{"changes": "Y31Q+N35W+W56R", "replicates, log10 nM": "1.73 1.77 1.82", "mean, log10 nM": "1.77", "signal with controls": "9/9 (5.01)"}
{"changes": "Q27D+K36T+H98S", "replicates, log10 nM": "0.34 0.50 0.45", "mean, log10 nM": "0.43", "signal with controls": "1/9 (4.10)"}
{"changes": "Y31M+A40N+E61C", "replicates, log10 nM": "4.02 n.d. n.d.", "mean, log10 nM": "4.02", "signal with controls": "1/9 (4.90)"}
{"changes": "A40E+Q95C+Q96S", "replicates, log10 nM": "n.d. n.d. n.d.", "mean, log10 nM": "n.d.", "signal with controls": "1/9 (3.22)"}
{"changes": "E32H+S33I+H98Q", "replicates, log10 nM": "4.65 5.30 6.13", "mean, log10 nM": "5.36", "signal with controls": "9/9 (5.07)"}
{"changes": "S25D+T59R+Q95E", "replicates, log10 nM": "3.76 3.23 4.29", "mean, log10 nM": "3.76", "signal with controls": "6/9 (4.80)"}
{"changes": "L30W+E32D+S62K", "replicates, log10 nM": "1.20 1.60 1.34", "mean, log10 nM": "1.38", "signal with controls": "1/9 (2.64)"}
{"changes": "S25Q+Q27L+H98A", "replicates, log10 nM": "0.46 0.70 0.67", "mean, log10 nM": "0.61", "signal with controls": "1/9 (5.41)"}
{"changes": "K24F+L30Y+S103C", "replicates, log10 nM": "n.d. n.d. n.d.", "mean, log10 nM": "n.d.", "signal with controls": "0/9"}
{"changes": "S28I+Y31R+N37C", "replicates, log10 nM": "4.53 3.61 4.12", "mean, log10 nM": "4.09", "signal with controls": "6/9 (4.54)"}
{"changes": "S25P+T59R+R60T", "replicates, log10 nM": "n.d. n.d. n.d.", "mean, log10 nM": "n.d.", "signal with controls": "1/9 (3.29)"}
{"changes": "Q27M+N35I+L102A", "replicates, log10 nM": "n.d. n.d. n.d.", "mean, log10 nM": "n.d.", "signal with controls": "0/9"}
{"changes": "S28N+W56G+H98V", "replicates, log10 nM": "-0.46 -0.20 -0.38", "mean, log10 nM": "-0.34", "signal with controls": "0/9"}
{"changes": "E32H+N35G+Q95C", "replicates, log10 nM": "n.d. n.d. n.d.", "mean, log10 nM": "n.d.", "signal with controls": "0/9"}
{"changes": "S25F+N37K+S58H", "replicates, log10 nM": "0.82 1.07 0.76", "mean, log10 nM": "0.88", "signal with controls": "0/9"}
{"changes": "S25G+Q27E+N35Q", "replicates, log10 nM": "n.d. n.d. n.d.", "mean, log10 nM": "n.d.", "signal with controls": "0/9"}

Picked from the list: the 5 lowest averages where every replicate gave a value.

{"changes": "K36F+W56D+E61I", "replicates, log10 nM": "-0.52 -0.15 -0.45", "mean, log10 nM": "-0.37", "signal with controls": "3/9 (3.58)"}
{"changes": "S28N+W56G+H98V", "replicates, log10 nM": "-0.46 -0.20 -0.38", "mean, log10 nM": "-0.34", "signal with controls": "0/9"}
{"changes": "Q27D+K36T+H98S", "replicates, log10 nM": "0.34 0.50 0.45", "mean, log10 nM": "0.43", "signal with controls": "1/9 (4.10)"}
{"changes": "S25Q+Q27L+H98A", "replicates, log10 nM": "0.46 0.70 0.67", "mean, log10 nM": "0.61", "signal with controls": "1/9 (5.41)"}
{"changes": "S25F+N37K+S58H", "replicates, log10 nM": "0.82 1.07 0.76", "mean, log10 nM": "0.88", "signal with controls": "0/9"}

For reference, the parent read 0.65 as the reference entry and 1.68 as a member of this library.
Three control strains display no target. For library AAYL50, 18% of the pairings with them gave a signal, with a median of 4.19 and one signal in twenty below 2.99, so weak values seen in few replicates may be background. For each scFv, signals with the empty controls are counted beside the result, with their mean in brackets.